Patent publication US12226424B2, “Target protein degradation compounds, their anti-tumor use, their intermediates and use of intermediates” (ShanghaiTech University, priority 2018, dated 2025)

Test system: HEK293 cells
Experiment: Proliferation inhibition (IC50) on non-BCR-ABL-positive HEK293 cells
Details: Homo sapiens, HEK293, read-out: IC50 (nM)/HEK293 cell line

Cc1nc(Nc2ncc(C(=O)Nc3c(C)cccc3Cl)s2)cc(N2CCN(CCO)CC2)n1 [Dasatinib, reference compound]
IC50: > 10000 nM
